Ab-14 heavy chain CDR variants: yeast mating affinities

From the AlphaSeq antibody data of Engelhart et al. 2022 (doi:10.1038/s41597-022-01779-4), copy in the FLAb collection.

The target is the same throughout: PDVDLGDISGINAS, from the HR2 region of SARS-CoV-2 spike.

Ab-14 is the parent antibody, in scFv form: VH, then three GGGGS repeats, then VL. The light chain is unchanged in all variants.
VH: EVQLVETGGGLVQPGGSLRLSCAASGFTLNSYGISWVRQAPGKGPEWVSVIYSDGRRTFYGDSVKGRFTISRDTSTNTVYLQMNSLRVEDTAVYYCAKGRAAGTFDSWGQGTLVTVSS
VL: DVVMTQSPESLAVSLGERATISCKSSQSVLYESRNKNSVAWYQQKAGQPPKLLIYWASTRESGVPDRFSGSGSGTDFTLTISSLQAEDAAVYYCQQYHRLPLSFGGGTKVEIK

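The starting antibody came from a phage panning campaign against this peptide. AAYL49 was designed without a model: most single CDR substitutions and a random sample of double and triple ones. Affinity was read by AlphaSeq, a pooled yeast mating assay with surface-displayed partners. The frequency of each diploid, read from paired DNA barcodes, reflects how well the two displayed proteins bind. A regression on co-assayed BCL2-family reference pairs converts the normalised counts of each replicate to an apparent Kd. Mating was done three times.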

Changes read parent residue, position, new residue, counted from the first residue of the VH shown. Scale: log10 of Kd in nM, estimated from mating counts; low values are strong binders. Averages over replicates are reported, and they cover detected replicates only. An entry "nd" has no value in the source: the pair was not observed among the diploids in that replicate. This suggests poor binding but is not conclusive.

changes	replicates, log10 nM	mean, log10 nM	control signals
G33H I51N K65M	nd / nd / nd	nd	1 of 9 (3.84)
Y32V F105D S107H	1.68 / 2.31 / 2.45	2.15	1 of 9 (2.22)
G33M D54V G55K	nd / nd / nd	nd	0 of 9
F27Y G33E Y52I	3.58 / nd / nd	3.58	0 of 9
T28V K65G G99L	1.99 / 2.07 / nd	2.03	0 of 9
V50E D62R G99E	nd / nd / nd	nd	1 of 9 (2.61)
Y32V S35Q A101K	nd / nd / nd	nd	0 of 9
R57F S63A	nd / 2.27 / nd	2.27	1 of 9 (3.23)
D62F G103F S107R	3.93 / nd / nd	3.93	2 of 9 (4.65)
S35F R57E G103V	nd / nd / 5.00	5.00	1 of 9 (4.38)
L29M F59G K65G	nd / nd / nd	nd	0 of 9
L29R D54W G99Q	nd / nd / nd	nd	2 of 9 (3.05)
K65P	nd / nd / nd	nd	0 of 9
S35R S63G G103N	nd / nd / nd	nd	0 of 9
N30H I34S Y60S	5.51 / nd / nd	5.51	1 of 9 (3.42)
S53Q F59H G103E	nd / nd / nd	nd	3 of 9 (4.20)
S63L K65S A102V	nd / 4.52 / 3.70	4.11	2 of 9 (3.77)
F27N I34K I51D	nd / nd / nd	nd	2 of 9 (3.94)
F27K N30D D106A	1.48 / 1.93 / 2.22	1.88	3 of 9 (3.72)
I51F F59H Y60V	nd / nd / nd	nd	2 of 9 (4.07)
I34Y A102R	nd / 2.44 / nd	2.44	0 of 9
N30F Y52V Y60F	nd / nd / nd	nd	0 of 9
V50R D54S V64A	nd / 3.79 / nd	3.79	4 of 9 (3.51)
R56G F105G	nd / 4.56 / nd	4.56	4 of 9 (4.28)
G55F G99I G103Y	nd / nd / nd	nd	1 of 9 (5.01)
I34G D54I G61D	nd / nd / nd	nd	1 of 9 (2.74)
I34T G103K	nd / nd / 5.35	5.35	2 of 9 (4.12)
G33V A102R T104H	3.29 / nd / nd	3.29	1 of 9 (3.30)
D54A	nd / nd / nd	nd	2 of 9 (3.06)
G26L Y32N I51R	nd / nd / nd	nd	0 of 9
S31E R57C D106H	6.10 / nd / nd	6.10	1 of 9 (3.73)
S35P D54K T58F	nd / nd / nd	nd	0 of 9
N30D V64R K65I	nd / nd / nd	nd	1 of 9 (4.49)
S53F D62E A101R	nd / nd / nd	nd	0 of 9
L29T S31K R100W	4.42 / nd / nd	4.42	2 of 9 (3.90)
G55L A102Q	nd / 3.01 / nd	3.01	1 of 9 (4.08)
S31L S53M D106M	nd / nd / nd	nd	0 of 9
T28K G55Q G103R	nd / nd / nd	nd	0 of 9
G26P I51E T104L	nd / nd / nd	nd	0 of 9
T28I K65T	1.86 / 2.09 / 2.38	2.11	1 of 9 (4.29)
I34K G103E	nd / nd / 2.80	2.80	1 of 9 (4.02)
V50T Y52S A101Y	nd / 2.63 / nd	2.63	4 of 9 (4.33)
D54W G103S T104M	4.75 / nd / nd	4.75	1 of 9 (4.59)
V50Y D54S A101C	nd / nd / nd	nd	3 of 9 (3.50)
Y32V V50H S63C	nd / nd / nd	nd	1 of 9 (3.93)
G33R G61E S107G	nd / nd / nd	nd	3 of 9 (4.19)

The closing 2 entries, repeated:

changes	replicates, log10 nM	mean, log10 nM	control signals
Y32V V50H S63C	nd / nd / nd	nd	1 of 9 (3.93)
G33R G61E S107G	nd / nd / nd	nd	3 of 9 (4.19)

Three control strains display no target. For library AAYL49, 15% of the pairings with them gave a signal, with a median of 4.06 and one signal in twenty below 2.83, so weak values seen in few replicates may be background. Also given: how often the same scFv was detected with the empty control strains, with their mean in brackets. Parent in this assay: reference entry 0.65, copy in this library 4.11 (one replicate of three).